The values that follow are results of earlier work, collected in patent US8022056B2, “Compositions and methods for the treatment of cancer” (Tautatis, Inc, priority 2006, dated 2011).

For the data set, the system named is breast cancer. Particulars: patients; cited from earlier work.

In the case of “Herceptin: HER2 antibody trastuzumab (Genentech, Inc.)”, the responder rates result is “about 30%”.
